For one compound, IC50 results are on record in US20110021530A1, “PYRIDAZINE DERIVATIVES AND THEIR USE AS THERAPEUTIC AGENTS IN THE TREATMENT OF SKIN DISORDERS” (XENON PHARMACEUTICALS INC., priority 2008, published 2011).

The target in this assay is T1, SCD (Mus musculus, UniProt P13516).
T1 sequence (P13516 1-355): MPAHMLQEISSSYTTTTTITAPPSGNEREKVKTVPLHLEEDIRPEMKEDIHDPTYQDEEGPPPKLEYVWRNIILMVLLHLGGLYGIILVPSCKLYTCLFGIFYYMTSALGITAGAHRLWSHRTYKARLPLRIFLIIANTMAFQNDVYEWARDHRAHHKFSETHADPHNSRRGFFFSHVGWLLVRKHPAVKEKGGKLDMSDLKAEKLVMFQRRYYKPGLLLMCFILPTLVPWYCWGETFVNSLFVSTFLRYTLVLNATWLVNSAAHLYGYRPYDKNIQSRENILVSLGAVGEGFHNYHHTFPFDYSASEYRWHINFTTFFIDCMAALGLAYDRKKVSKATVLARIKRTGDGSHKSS
The assay is described as follows: Mouse SCD IC50 determination for compounds active in the HTS assay. The class given is biochemical.

Take `O=C(NCCc1ccccc1)c1ccc(N2CCN(C(=O)c3ccccc3C(F)(F)F)CC2)nn1` [6-[4-(2-Trifluoromethylbenzoyl)piperazin-1-yl]pyridazine-3-carboxylic acid phenethylamide]: the IC50 turned out to be 0.02 µM.

The term IC50 denotes the point on the concentration scale where inhibition reaches its midpoint. Read a high IC50 as a need for much substance.
